From patent publication US9073853B2, “Cycloalkane carboxylic acid derivatives as CXCR3 receptor antagonists” (Sanofi, priority 2011, dated 2015)
pIC50: −log10 of the molar value.

The chains behind the UniProt entries cited, without tags or fusion partners. Where a name states a change or a piece, a line headed by the entry shows the natural chain unless it says otherwise.
UniProt P49682: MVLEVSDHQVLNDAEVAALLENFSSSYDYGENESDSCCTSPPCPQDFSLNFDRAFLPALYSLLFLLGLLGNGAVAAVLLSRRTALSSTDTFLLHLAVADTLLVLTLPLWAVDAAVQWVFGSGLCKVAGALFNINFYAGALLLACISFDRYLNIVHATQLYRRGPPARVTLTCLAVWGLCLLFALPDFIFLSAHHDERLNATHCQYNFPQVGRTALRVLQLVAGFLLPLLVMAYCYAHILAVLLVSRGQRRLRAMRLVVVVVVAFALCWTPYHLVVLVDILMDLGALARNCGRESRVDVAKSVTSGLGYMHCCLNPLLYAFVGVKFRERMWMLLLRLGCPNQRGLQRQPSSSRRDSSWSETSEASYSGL

Target: human CXCR3-A receptor (Homo sapiens (Human), UniProt P49682)
Assay: 125I-CXCL10 competition radioligand binding assay
Conditions: displacement of 125I-CXCL10 from membranes of CHO cells expressing human recombinant CXCR3-A
Method: Compounds according to the invention as described are useful to block the interaction of CXCR3-A and CXCL10 in a radiolabelled binding assay. […] IC50 values were determined for the test compounds and used to explore the structure-activity relationships (SAR). […] This cell line was registered in Sanofi-Aventis cell line bank. […] Cell suspension was diluted with PBS and cells were collected with centrifugation at 230 g for 10 minutes at 10° C. with a Juan centrifuge. […] This suspension was homogenized with a Teflon/glass homogenizer (Sartorius potter S) with 3×10 sec pulses in ice cold water bath, and then centrifuged at 300×g for 10 min at 4° C. with a Sigma centrifuge. The supernatant was carefully collected and centrifuged at 100,000×g for 60 min at 4° with a Beckman Avanti J30 centrifuge. […] Protein concentration was determined with Bio-Rad protein assay (Cat No 500-0006). Membrane aliquots were stored at -80° C. No degradation was observed until a storage period of approximately 5 months. The composition of the binding assay buffer was determined in a course of detailed optimization procedure. […] Binding reaction was initiated by adding of membranes (10-20 μg proteins, approximately 5×10^5 cell equivalents) to the reaction mixture. […] The radioactivity retained on the filters was measured by a Wizard 1470 Automatic Gamma counter. […]

pIC50 | Compound
6.12 | COc1cc(CN(C[C@H]2CC[C@@H](C(=O)O)CC2)C(C)c2ccc3c(c2)CCO3)ccc1OCCN1C(=O)CCC1=O (stereo partly drawn) [Example 2, cis-4-[([1-(2,3-Dihydro-benzofuran-5-yl)-ethyl]-{4-[2-(2,5-dioxo-pyrrolidin-1-yl)-ethoxy]-3-methoxy-benzyl}-amino)-methyl]-cyclohexanecarboxylic acid]
7.43 | COc1cc(CN(C[C@H]2CC[C@H](C(=O)O)CC2)[C@@H](C)c2ccc3c(c2)CCO3)ccc1OCCN1C(=O)CCC1=O [Example 4, trans-4-[([(S)-1-(2,3-Dihydro-benzofuran-5-yl)-ethyl]-{4-[2-(2,5-dioxo-pyrrolidin-1-yl)-ethoxy]-3-methoxy-benzyl}-amino)-methyl]-cyclohexanecarboxylic acid]
